Drawing on PubChem BioAssay AID504766 (The Scripps Research Institute Molecular Screening Center, 2011), this text covers inhibition for two compounds.

Chains of the proteins cited; added tags and fusions are not shown. Residues count along the entry.
UniProt P51843, 207-470 limits assumed: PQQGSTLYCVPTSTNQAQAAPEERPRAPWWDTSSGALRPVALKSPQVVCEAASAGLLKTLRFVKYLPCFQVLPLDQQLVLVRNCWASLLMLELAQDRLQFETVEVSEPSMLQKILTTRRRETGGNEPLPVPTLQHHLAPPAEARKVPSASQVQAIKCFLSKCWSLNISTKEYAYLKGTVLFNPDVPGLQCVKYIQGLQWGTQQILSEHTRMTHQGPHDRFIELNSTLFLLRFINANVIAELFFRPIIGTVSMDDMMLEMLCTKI

The list shows a part of the results, in another mix than the full data. The source made the active and inactive calls.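 How the source made its calls: active means inhibition above the mean over all tested compounds plus 3 SD (cut at about 4.2% in these data); inactive means the rest.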

This assay has as its target Nuclear receptor subfamily 0 group B member 1 (Homo sapiens) (UniProt P51843). Description: relief of DAX1 transcriptional repression – cell-based, HEK293, Gal4-DAX1, luciferase luminescence, primary screen (AID 504766).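 Further: 0% = DAX1-transfected cells with DMSO and 100% = empty-vector control cells with DMSO; inhibition shows as a rise in luminescence from relieved DAX1 repression.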 To be noted: HEK293 Gal4-DAX1 luciferase reporter, at 6.75 µM, hits give high values. For orientation: Reporter assays use an easily measured gene product as a stand-in for the process of interest.
The term inhibition denotes the percentage by which the read-out fell short of the control. With `CCC(=O)N(c1ccccc1)C1(COC)CCN(CCn2nnn(CC)c2=O)CC1`, the inhibition was inactive: 0.33%. As to `CCC(=O)N(c1ccccc1)C1(COC)CCN(CCc2cccs2)CC1`, the inhibition is inactive: 0.18%.
